Data reported in patent EP4834897A1, “COMPOUNDS WITH TWO AZAHETEROCYCLES SUBSTITUTED ISOINDOLINONE SKELETON AND USES THEREOF” (dated 2026).

Protein sequences, listed by entry. Tags and fused reporters are not part of them.
UniProt P48729, whole entry: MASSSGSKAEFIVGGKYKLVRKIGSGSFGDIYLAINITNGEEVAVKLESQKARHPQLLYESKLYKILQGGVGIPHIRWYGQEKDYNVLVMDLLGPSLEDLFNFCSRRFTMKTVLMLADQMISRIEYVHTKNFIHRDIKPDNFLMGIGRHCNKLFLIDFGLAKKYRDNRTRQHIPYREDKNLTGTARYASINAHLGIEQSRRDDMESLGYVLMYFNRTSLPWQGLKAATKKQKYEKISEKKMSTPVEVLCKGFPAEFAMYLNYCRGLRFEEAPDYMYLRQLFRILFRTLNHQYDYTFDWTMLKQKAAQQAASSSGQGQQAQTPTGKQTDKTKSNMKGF
UniProt Q96SW2, whole entry: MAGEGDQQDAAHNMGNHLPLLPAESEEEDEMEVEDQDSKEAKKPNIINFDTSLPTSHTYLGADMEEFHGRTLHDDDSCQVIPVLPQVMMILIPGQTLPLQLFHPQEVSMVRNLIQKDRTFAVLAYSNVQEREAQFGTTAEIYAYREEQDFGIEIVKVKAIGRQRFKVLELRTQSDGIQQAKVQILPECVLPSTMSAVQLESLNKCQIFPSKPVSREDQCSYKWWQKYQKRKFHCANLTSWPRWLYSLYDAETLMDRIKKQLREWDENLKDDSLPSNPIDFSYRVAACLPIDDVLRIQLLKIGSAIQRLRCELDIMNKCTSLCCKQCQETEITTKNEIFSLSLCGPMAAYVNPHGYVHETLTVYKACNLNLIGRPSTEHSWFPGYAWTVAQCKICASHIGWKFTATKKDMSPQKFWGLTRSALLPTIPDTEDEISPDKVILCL
UniProt P30291, whole entry: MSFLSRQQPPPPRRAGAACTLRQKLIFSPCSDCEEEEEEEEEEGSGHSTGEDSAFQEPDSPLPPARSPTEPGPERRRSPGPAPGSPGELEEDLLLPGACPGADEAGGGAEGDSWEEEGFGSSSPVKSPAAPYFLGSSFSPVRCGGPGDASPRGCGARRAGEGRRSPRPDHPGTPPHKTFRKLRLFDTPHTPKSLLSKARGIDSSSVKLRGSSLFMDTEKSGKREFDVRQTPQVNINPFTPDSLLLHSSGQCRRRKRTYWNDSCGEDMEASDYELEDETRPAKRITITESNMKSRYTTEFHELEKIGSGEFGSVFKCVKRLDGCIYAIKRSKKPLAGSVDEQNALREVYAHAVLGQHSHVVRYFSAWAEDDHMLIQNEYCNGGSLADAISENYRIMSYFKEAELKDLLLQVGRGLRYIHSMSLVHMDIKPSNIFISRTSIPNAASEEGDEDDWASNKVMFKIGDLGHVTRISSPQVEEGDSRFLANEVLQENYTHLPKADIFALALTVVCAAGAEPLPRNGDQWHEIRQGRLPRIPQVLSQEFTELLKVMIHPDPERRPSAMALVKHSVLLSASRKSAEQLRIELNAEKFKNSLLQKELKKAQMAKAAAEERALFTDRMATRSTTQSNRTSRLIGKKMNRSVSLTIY
UniProt P15170, whole entry: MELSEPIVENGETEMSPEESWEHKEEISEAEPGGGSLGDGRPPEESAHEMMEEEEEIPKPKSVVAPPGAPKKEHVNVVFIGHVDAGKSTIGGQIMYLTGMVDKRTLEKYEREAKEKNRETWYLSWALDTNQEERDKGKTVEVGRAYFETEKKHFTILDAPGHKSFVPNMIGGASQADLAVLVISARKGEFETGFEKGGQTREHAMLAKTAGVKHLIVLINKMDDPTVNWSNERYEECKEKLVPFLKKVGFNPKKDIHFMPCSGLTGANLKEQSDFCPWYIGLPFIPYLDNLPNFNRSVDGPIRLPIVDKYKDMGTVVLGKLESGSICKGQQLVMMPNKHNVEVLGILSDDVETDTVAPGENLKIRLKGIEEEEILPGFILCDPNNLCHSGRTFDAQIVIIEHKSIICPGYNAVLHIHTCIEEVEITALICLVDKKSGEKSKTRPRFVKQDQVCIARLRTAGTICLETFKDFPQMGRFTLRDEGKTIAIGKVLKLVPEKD
UniProt Q13422, whole entry: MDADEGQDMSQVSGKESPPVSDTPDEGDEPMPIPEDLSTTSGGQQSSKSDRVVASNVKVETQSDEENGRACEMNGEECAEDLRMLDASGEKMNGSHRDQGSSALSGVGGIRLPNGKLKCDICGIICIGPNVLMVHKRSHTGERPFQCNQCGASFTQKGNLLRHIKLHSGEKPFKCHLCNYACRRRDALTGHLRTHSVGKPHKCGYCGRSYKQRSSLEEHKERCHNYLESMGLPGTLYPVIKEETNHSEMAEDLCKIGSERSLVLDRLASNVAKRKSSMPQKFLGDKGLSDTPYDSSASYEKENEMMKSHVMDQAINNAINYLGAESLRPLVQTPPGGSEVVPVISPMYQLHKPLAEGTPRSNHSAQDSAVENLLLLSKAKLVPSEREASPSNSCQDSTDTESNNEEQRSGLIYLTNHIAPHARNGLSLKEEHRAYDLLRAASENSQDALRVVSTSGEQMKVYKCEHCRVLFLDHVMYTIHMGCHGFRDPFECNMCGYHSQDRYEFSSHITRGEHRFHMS
UniProt Q9UKS7, whole entry: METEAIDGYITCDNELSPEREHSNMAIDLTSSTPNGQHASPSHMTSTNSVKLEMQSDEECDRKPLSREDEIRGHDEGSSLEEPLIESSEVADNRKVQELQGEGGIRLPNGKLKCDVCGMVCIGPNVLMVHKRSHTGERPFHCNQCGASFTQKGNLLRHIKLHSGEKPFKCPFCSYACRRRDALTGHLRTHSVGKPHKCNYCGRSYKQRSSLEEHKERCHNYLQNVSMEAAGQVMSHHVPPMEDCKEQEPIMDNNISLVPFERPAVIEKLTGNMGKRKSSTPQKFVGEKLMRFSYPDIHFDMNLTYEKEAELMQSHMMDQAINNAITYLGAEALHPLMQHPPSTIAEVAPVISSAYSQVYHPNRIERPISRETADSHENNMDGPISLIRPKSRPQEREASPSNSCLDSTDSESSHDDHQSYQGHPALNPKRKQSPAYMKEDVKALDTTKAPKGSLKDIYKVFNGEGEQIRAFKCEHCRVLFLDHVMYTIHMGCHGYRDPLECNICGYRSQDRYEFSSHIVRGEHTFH
UniProt Q9UKT9, whole entry: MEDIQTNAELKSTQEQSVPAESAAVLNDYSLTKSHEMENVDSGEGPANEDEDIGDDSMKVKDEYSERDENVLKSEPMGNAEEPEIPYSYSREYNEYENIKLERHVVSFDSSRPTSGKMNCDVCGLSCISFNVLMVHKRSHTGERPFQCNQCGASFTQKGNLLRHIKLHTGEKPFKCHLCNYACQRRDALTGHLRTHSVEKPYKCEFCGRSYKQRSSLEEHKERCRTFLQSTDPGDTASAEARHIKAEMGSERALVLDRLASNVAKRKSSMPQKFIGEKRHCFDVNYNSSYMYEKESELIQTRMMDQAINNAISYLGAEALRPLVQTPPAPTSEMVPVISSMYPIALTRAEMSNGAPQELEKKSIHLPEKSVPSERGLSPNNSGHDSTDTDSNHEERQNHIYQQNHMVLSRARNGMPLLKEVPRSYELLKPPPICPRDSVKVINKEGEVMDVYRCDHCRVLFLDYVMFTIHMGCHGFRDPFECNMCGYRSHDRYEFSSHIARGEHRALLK
UniProt Q16531, whole entry partner: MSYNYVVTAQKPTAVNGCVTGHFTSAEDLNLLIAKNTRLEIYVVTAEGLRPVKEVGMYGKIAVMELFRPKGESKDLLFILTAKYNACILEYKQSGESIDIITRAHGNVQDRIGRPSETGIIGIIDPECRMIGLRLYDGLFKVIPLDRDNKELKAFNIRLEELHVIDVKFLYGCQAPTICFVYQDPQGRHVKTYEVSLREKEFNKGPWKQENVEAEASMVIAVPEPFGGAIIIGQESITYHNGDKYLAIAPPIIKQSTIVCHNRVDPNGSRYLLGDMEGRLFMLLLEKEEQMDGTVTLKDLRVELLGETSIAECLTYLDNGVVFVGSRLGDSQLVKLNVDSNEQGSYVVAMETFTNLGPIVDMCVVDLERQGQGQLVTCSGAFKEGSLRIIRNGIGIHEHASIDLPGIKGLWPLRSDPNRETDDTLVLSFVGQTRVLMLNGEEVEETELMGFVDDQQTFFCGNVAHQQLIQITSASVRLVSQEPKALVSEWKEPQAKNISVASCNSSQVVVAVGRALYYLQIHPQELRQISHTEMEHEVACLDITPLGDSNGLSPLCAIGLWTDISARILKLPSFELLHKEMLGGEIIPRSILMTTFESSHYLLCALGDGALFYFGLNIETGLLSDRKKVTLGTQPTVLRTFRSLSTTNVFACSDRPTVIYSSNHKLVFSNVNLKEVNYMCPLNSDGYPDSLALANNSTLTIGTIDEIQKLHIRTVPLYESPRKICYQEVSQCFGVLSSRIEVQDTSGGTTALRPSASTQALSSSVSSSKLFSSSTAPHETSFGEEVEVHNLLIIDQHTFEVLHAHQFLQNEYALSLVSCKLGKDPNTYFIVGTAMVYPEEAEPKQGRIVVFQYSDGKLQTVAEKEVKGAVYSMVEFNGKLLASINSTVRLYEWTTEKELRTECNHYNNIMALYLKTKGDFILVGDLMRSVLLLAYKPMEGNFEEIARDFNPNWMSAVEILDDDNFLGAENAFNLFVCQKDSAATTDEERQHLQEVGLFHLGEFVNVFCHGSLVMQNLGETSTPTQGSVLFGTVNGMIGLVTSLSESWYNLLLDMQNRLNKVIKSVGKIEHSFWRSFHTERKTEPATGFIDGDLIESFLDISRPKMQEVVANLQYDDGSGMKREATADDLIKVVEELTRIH

Experiments:
[1] = molecular target: CK1α (Homo sapiens, UniProt P48729+Q96SW2); assay: Western blot assay of substrate protein degradation in hPBMCs; details: 24 hours treatment, compounds at 50 nM and 500 nM (concentration behind the class not stated)
[2] = molecular target: WEE1 (Homo sapiens, UniProt P30291+Q96SW2); assay: as above; details: 24 hours treatment, compounds at 50 nM and 500 nM (concentration behind the class not stated)
[3] = molecular target: GSPT1 (Homo sapiens, UniProt P15170+Q96SW2); assay: as above; details: 24 hours treatment, compounds at 50 nM and 500 nM (concentration behind the class not stated)
[4] = molecular target: IKZF1 (Homo sapiens, UniProt Q13422+Q96SW2); assay: as above; details: 24 hours treatment, compounds at 50 nM and 500 nM (concentration behind the class not stated)
[5] = molecular target: IKZF2 (Homo sapiens, UniProt Q96SW2+Q9UKS7); assay: as above; details: 24 hours treatment, compounds at 50 nM and 500 nM (concentration behind the class not stated)
[6] = molecular target: IKZF3 (Homo sapiens, UniProt Q96SW2+Q9UKT9); assay: as above; details: 24 hours treatment, compounds at 50 nM and 500 nM (concentration behind the class not stated)
[7] = molecular target: CRBN (Homo sapiens, UniProt Q96SW2); assay: CRBN binding affinity by HTRF (CEREBLON BINDING kit); details: for Inhibition Rate at 0.5 µM (%) / Inhibition Rate at 2 µM (%): CRBN binding, HTRF; for Inhibition Rate at 0.5 µM (%): compound at 0.5 µM; for Inhibition Rate at 2 µM (%): compound at 2 µM

| Inhibition Rate at 0.5 µM (%) [7] | Inhibition Rate at 2 µM (%) [7] | IC50 ([7]; read-out: HTRF IC50, human Cereblon WT GST-tagged protein, 3 hours at room temperature) [nM] | Compound | substrate protein remaining % (CK1a) [1] | substrate protein remaining % (WEE1) [2] | substrate protein remaining % (GSPT1) [3] | substrate protein remaining % (IKZF 1) [4] | substrate protein remaining % (IKZF2) [5] | substrate protein remaining % (IKZF3) [6] |
| --- | --- | --- | --- | --- | --- | --- | --- | --- | --- |
|  |  |  | O=C1CCC(N2Cc3cc(C(=O)N4CCC(N5CCN(c6cccc(Cl)c6Cl)CC5)C(F)(F)C4)ccc3C2=O)C(=O)N1 (centres unmarked) | A (0% ≤ substrate protein remaining % ≤ 80%) | B (80%< substrate protein remaining %≤ 100%) | A (0% ≤ substrate protein remaining % ≤ 80%) | B (80%< substrate protein remaining %≤ 100%) | B (80%< substrate protein remaining %≤ 100%) | B (80%< substrate protein remaining %≤ 100%) |
|  |  |  | CC1(C)CCC(C(=O)N2CCN(C3CCN(Cc4ccc5c(c4)C(=O)N(N4CCC(=O)NC4=O)C5=O)CC3(F)F)CC2)=C(c2ccc(Cl)cc2)C1 (centres unmarked) | B (80%< substrate protein remaining %≤ 100%) | B (80%< substrate protein remaining %≤ 100%) | A (0% ≤ substrate protein remaining % ≤ 80%) | B (80%< substrate protein remaining %≤ 100%) | A (0% ≤ substrate protein remaining % ≤ 80%) | A (0% ≤ substrate protein remaining % ≤ 80%) |
|  |  |  | O=C1CCC(N2Cc3cc(CCCN4CCC(N5CCC(c6noc7cc(F)ccc67)CC5)C(F)(F)C4)ccc3C2=O)C(=O)N1 (centres unmarked) | A (0% ≤ substrate protein remaining % ≤ 80%) | A (0% ≤ substrate protein remaining % ≤ 80%) | A (0% ≤ substrate protein remaining % ≤ 80%) | B (80%< substrate protein remaining %≤ 100%) | A (0% ≤ substrate protein remaining % ≤ 80%) | A (0% ≤ substrate protein remaining % ≤ 80%) |
|  |  |  | O=C1CCN(N2Cc3cc(CN4CCC(N5CCN(C(c6ccccc6)c6ccccn6)CC5)C(F)(F)C4)ccc3C2=O)C(=O)N1 (centres unmarked) | A (0% ≤ substrate protein remaining % ≤ 80%) | B (80%< substrate protein remaining %≤ 100%) | A (0% ≤ substrate protein remaining % ≤ 80%) | B (80%< substrate protein remaining %≤ 100%) | B (80%< substrate protein remaining %≤ 100%) | A (0% ≤ substrate protein remaining % ≤ 80%) |
| a3 (30% < a3 ≤ 40%) | a5 (53% < a5 ≤ 60%) |  | O=C1CCC(N2Cc3ccc(C(=O)N4CCC(N5CCN(c6cccc(Cl)c6Cl)CC5)CC4)cc3C2=O)C(=O)N1 (centres unmarked) |  |  |  |  |  |  |
|  |  |  | O=C1CCC(N2C(=O)c3cccc(CN4CCC(N5CCN(c6cccc(Cl)c6Cl)CC5)C(F)(F)C4)c3C2=O)C(=O)N1 (centres unmarked) | A (0% ≤ substrate protein remaining % ≤ 80%) | A (0% ≤ substrate protein remaining % ≤ 80%) | A (0% ≤ substrate protein remaining % ≤ 80%) | A (0% ≤ substrate protein remaining % ≤ 80%) | B (80%< substrate protein remaining %≤ 100%) | B (80%< substrate protein remaining %≤ 100%) |
| a3 (30% < a3 ≤ 40%) | a6 (60% < a6 ≤ 70%) |  | O=C1CCC(N2Cc3cc(C(=O)N4CCC(N5CCN(C(c6ccccc6)c6ccccn6)CC5)C(F)(F)C4)c(F)cc3C2=O)C(=O)N1 (centres unmarked) |  |  |  |  |  |  |
|  |  |  | O=C1CCN(N2C(=O)c3ccc(CN4CCC(N5CCN(c6cccc(Cl)c6Cl)CC5)C(F)(F)C4)cc3C2=O)C(=O)N1 (centres unmarked) | B (80%< substrate protein remaining %≤ 100%) | B (80%< substrate protein remaining %≤ 100%) | B (80%< substrate protein remaining %≤ 100%) | B (80%< substrate protein remaining %≤ 100%) | A (0% ≤ substrate protein remaining % ≤ 80%) | B (80%< substrate protein remaining %≤ 100%) |
|  |  |  | O=C1CCC(N2C(=O)c3ccc(C(=O)N4CCC(N5CCN(c6cccc(Cl)c6Cl)CC5)C(F)(F)C4)cc3C2=O)C(=O)N1 (centres unmarked) | B (80%< substrate protein remaining %≤ 100%) | B (80%< substrate protein remaining %≤ 100%) | A (0% ≤ substrate protein remaining % ≤ 80%) | B (80%< substrate protein remaining %≤ 100%) | B (80%< substrate protein remaining %≤ 100%) | B (80%< substrate protein remaining %≤ 100%) |
|  |  |  | CC1(C)CCC(CN2CCN(C3CCN(C(=O)c4cc5c(cc4F)C(=O)N(C4CCC(=O)NC4=O)C5)CC3(F)F)CC2)=C(c2ccc(Cl)cc2)C1 (centres unmarked) | A (0% ≤ substrate protein remaining % ≤ 80%) | B (80%< substrate protein remaining %≤ 100%) | A (0% ≤ substrate protein remaining % ≤ 80%) | B (80%< substrate protein remaining %≤ 100%) | B (80%< substrate protein remaining %≤ 100%) | B (80%< substrate protein remaining %≤ 100%) |
| a5 (53% < a5 ≤ 60%) | a8 (80% < a8 ≤100%) |  | O=C1CCC(N2Cc3c(CN4CCC(N5CCC(c6noc7cc(F)ccc67)CC5)C(F)(F)C4)cccc3C2=S)C(=O)N1 (centres unmarked) |  |  |  |  |  |  |
| a4 (40% < a4 ≤ 53%) | a8 (80% < a8 ≤100%) |  | CC1(C)CCC(C(=O)N2CCN(C3CCN(Cc4ccc5c(c4)C(=S)N(C4CCC(=O)NC4=O)C5)CC3(F)F)CC2)=C(c2ccc(Cl)cc2)C1 (centres unmarked) |  |  |  |  |  |  |
|  |  | 1500 to 1900 | O=C1CCC(N2Cc3c(CN4CCC(N5CCN(C(c6ccccc6)c6ccccc6)CC5)CC4)cccc3C2=O)C(=O)N1 (centres unmarked) |  |  |  |  |  |  |
| a6 (60% < a6 ≤ 70%) | a8 (80% < a8 ≤100%) |  | CC1(C)CCC(C(=O)N2CCN(C3CCN(C(=O)c4ccc5c(c4)C(=O)N(C4CCC(=O)NC4=O)C5)CC3(F)F)CC2)=C(c2ccc(Cl)cc2)C1 (centres unmarked) |  |  |  |  |  |  |
